Results: PubChem BioAssay (NCATS)
Only a part is listed here, and it is no random draw. Records with an inconclusive call do not appear. For some of these results: Measured potencies and affinities stand elsewhere. Active and inactive are the calls of the source.

Test: qHTS Assay for Identifying Gametocytocidal Compounds (AID 743244);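 also: % is scaled to controls: 0 for no effect and ±100 for the full control effect; actives lower the fluorescent signal which means gametocytes are killed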
Details: P. falciparum 3D7 stage III-V gametocytes, alamarBlue, 72 h; stronger effect = lower value
For efficacy in this document: 0% is about no effect.

SMILES	max response
CN(CCCl)CCCl	inactive: 13.4%
CCC(=O)N(c1ccccc1)C1(COC)CCN(CCn2nnn(CC)c2=O)CC1	inactive: 5.87%
CCC(=O)N(c1ccccc1)C1(COC)CCN(CCc2cccs2)CC1	inactive: -15.4%
CCC(=O)N(c1ccccc1)C1CCN(CCc2ccccc2)CC1	inactive: 5.19%

Test: not given
Details: Ebola virus entry assay, green fluorescence channel

SMILES	efficacy
CN(CCCl)CCCl	inactive: -30.8%
CCC(=O)N(c1ccccc1)C1(COC)CCN(CCn2nnn(CC)c2=O)CC1	inactive: 26.7%
CCC(=O)N(c1ccccc1)C1(COC)CCN(CCc2cccs2)CC1	inactive: 124%
